ChEMBL document CHEMBL1140158, “Soluble 3',6-substituted indirubins with enhanced selectivity toward glycogen synthase kinase -3 alter circadian period” (J Med Chem, 2008)

Key:
[1] = test system: Glycogen synthase kinase-3 (Sus scrofa); experiment: Inhibition of pig GSK3alpha/beta
[2] = Inhibition of human recombinant CDK5/p25 expressed in Escherichia coli

Row | Compound | IC50 [1] | IC50 [2]
1 | Cl.Cl.O=C1Nc2cc(Br)ccc2/C1=C1/Nc2ccccc2/C1=N\OCCN1CCNCC1 | 1.3 nM | –
2 | CN(C)CCO/N=C1/C(=C2/C(=O)Nc3cc(Br)ccc32)Nc2ccccc21.Cl | – | 53 nM
3 | O=C1Nc2cc(Br)ccc2/C1=C1/Nc2ccccc2/C1=N\OCCN1CCNCC1 | 3.3 nM | –
